# Assay results: article PMC10079235 (PLOS Neglected Tropical Diseases, 2023)
# Experiments:
# HCT-8/WT cells = experiment: MTS cytotoxicity (drug tolerance) assay; conditions: no drug selection
# Experimental: (§1) Host cell drug tolerance to specified inhibitors was evaluated by 3-(4,5-dimethylthiazol-2-yl)-5-(3-carboxymethoxyphenyl)-2-(4-sulfophenyl)-2H-tetrazolium (MTS) assay. WT and transgenic host cells were seeded in 96-well plates (10,000 cells/well) and cultured for 24 h, followed by the addition of specified compounds at serially diluted concentrations and continued culture for 41 h. After 3 washes with serum-free medium, MTS solution (Saint-Bio, Shanghai, China) was added into the plates (20 μL/well) and incubated at 37°C for 2 h. Optical density at 490 nm (OD490) was measured using a Synergy LX multi-mode reader (BioTek, Winooski, VT). Drug tolerance was indicated by half-maximal cytotoxic concentrations (TC50 values) calculated by nonlinear regression using 4PL model. Selectivity index (SI) for each compound was determined by the ratio between TC50 and EC50 values (SI = TC50/EC50).
# HCT-8/NC(NTZ) cells = experiment: MTS cytotoxicity (drug tolerance) assay; conditions: after selection by NTZ
# Experimental: as §1
# (§2) Surviving cells were allowed to recover in drug-free medium for 3–5 d to near confluence (round 1). The selection/recovery cycle were repeated once (round 2). […] Finally, all cells were cultured at the final selection concentrations of PTX or NTZ for ≥7 d, followed by culture in drug-free medium for 14 d. At this time point, cells were used for cytotoxicity and efficacy assays or cryopreserved in a liquid nitrogen tank. […]
# HCT-8/WT(NTZ) cells = experiment: MTS cytotoxicity (drug tolerance) assay; conditions: after selection by NTZ
# Experimental: as §1, §2
# HCT-8/MDR1(NTZ) cells = experiment: MTS cytotoxicity (drug tolerance) assay; conditions: after selection by NTZ
# Experimental: as §1
# (§3) Surviving cells were allowed to recover in drug-free medium for 3–5 d to near confluence (round 1). The selection/recovery cycle were repeated once (round 2). […] The resulting cell lines after PTX or NTZ selection were designated as WT(PTX), NC(PTX) and MDR1(PTX), or WT(NTZ), NC(NTZ) and MDR1(NTZ), respectively (Tables 1 and S2).
# HCT-8/NC(PTX) cells = experiment: MTS cytotoxicity (drug tolerance) assay; conditions: after selection by PTX
# Experimental: as §1, §3
# HCT-8/WT(PTX) cells = experiment: MTS cytotoxicity (drug tolerance) assay; conditions: after selection by PTX
# Experimental: as §1, §3
# HCT-8/NC cells = experiment: MTS cytotoxicity (drug tolerance) assay; conditions: no drug selection
# HCT-8/MDR1(PTX) cells = system: HCT-8/MDR1(PTX) cells
# Experimental: as §1, §3
# HCT-8/MDR1 cells = experiment: MTS cytotoxicity (drug tolerance) assay; conditions: no drug selection
substance,measurement,setting,value
Ivermectin,TC50,HCT-8/WT cells,15.52 µM
same,TC50,HCT-8/NC(NTZ) cells,15.18 µM
same,TC50,HCT-8/WT(NTZ) cells,14.75 µM
same,TC50,HCT-8/MDR1(NTZ) cells,22.59 µM
same,TC50,HCT-8/NC(PTX) cells,14.64 µM
same,TC50,HCT-8/WT(PTX) cells,14.51 µM
same,TC50,HCT-8/NC cells,15.29 µM
same,TC50,"HCT-8/MDR1(PTX) cells; MDR1(PTX) cells, after selection by PTX",36.37 µM
same,Pct change of TC50 (vs NC),HCT-8/MDR1(PTX) cells; MDR1(PTX) vs NC cells,137.9%
same,TC50,HCT-8/MDR1 cells,24.02 µM
